From PubChem BioAssay AID1671463 (Sanford-Burnham Center for Chemical Genomics, 2021)
The entries are a selection whose mix differs from that of the whole data set. Some of these compounds have results that are not shown, active ones among them. Active and inactive are the calls of the source. No stated cut-off is given here; in the data, active means activation above about 40%; inactive means the rest.

Amino acid sequences for entries named in this document (tags omitted).
UniProt P16066, whole entry: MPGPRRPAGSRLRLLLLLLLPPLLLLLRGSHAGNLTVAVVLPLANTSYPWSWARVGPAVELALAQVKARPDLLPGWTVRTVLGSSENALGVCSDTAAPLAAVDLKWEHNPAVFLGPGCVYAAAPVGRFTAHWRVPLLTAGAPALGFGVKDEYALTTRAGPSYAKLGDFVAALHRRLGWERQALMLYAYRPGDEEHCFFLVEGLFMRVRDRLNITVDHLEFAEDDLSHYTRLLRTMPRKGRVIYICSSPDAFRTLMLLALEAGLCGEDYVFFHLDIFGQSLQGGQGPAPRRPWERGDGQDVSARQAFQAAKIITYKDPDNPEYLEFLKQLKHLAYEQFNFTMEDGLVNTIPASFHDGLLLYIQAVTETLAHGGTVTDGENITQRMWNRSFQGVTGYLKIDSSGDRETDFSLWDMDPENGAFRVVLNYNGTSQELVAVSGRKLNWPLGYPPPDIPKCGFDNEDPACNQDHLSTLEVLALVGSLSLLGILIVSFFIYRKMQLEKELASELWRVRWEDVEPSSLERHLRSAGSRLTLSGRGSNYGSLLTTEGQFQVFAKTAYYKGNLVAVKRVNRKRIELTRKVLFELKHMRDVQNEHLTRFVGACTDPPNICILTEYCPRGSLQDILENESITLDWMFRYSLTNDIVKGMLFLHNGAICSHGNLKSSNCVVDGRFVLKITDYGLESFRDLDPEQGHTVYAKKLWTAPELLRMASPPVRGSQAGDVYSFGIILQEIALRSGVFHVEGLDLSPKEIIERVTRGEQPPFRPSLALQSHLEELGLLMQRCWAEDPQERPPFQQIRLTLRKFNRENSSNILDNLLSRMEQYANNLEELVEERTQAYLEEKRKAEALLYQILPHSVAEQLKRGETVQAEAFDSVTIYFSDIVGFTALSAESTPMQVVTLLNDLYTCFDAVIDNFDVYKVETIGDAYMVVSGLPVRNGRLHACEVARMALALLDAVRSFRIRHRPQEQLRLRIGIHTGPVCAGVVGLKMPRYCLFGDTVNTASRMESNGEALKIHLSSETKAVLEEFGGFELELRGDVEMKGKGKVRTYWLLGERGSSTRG

target: Atrial natriuretic peptide receptor 1 (Homo sapiens) (UniProt P16066); assay: GC-A stimulated cGMP production enhancers – HEK293 GC-A cells, cGMP TR-FRET, EC30 ANP, primary screen (AID 1671463); settings: at 10 µM, stronger effect = higher value, 0% at EC30 ANP, 100% saturating ANP

Q: With COc1ccc(Br)c(C(=O)NCC2(N3CCCCC3)CCCCC2)c1 as the molecule, how does the activation read?
A: inactive: 0.58%

Q: For C=C(C)C#CC(O)(C(=O)OC1CCN(C)CC1)c1ccccc1 (stereo unspecified), which activation is on record?
A: inactive: -4.23%

Q: CN(C)c1cccc(C(=O)NCC2(N(C)C)CCCCC2)c1 was tested. Which activation did it give?
A: inactive: -4.23%

Q: CC(C)Oc1ccc(C(=O)NCC2(N(C)C)CCCCC2)cc1 was tested. Which activation did it give?
A: inactive: 1.79%

Q: For O=C(OCCN1CCCC1)C(O)(c1ccccc1)c1ccccc1, which activation is on record?
A: inactive: -1.18%

Q: With O=C(OC1CN2CCC1CC2)C(CO)(c1ccccc1)c1ccccc1 (stereo unspecified) as the molecule, how does the activation read?
A: inactive: -4.72%

Q: With COc1cccc(C(=O)NCC2(N3CCCCC3)CCCCC2)c1 as the molecule, how does the activation read?
A: inactive: -1.87%

Q: With COc1ccc(Cl)cc1C(=O)NCC1(N(C)C)CCCCC1 as the molecule, how does the activation read?
A: inactive: -2.04%

Q: For O=C(NCC1(N2CCCCC2)CCCCC1)c1cccc(Cl)c1, which activation is on record?
A: inactive: 2.26%

Q: CN(C)C1(CNC(=O)c2ccc(Br)cc2)CCCCC1 was tested. Which activation did it give?
A: inactive: 2.9%

Q: For COc1cc(C(=O)NCC2(N(C)C)CCCCC2)c([N+](=O)[O-])cc1OC, which activation is on record?
A: inactive: 6.22%

Q: For C=CCN1CCN(CCOC(=O)C(O)(c2ccccc2)c2ccccc2)CC1, which activation is on record?
A: inactive: -0.29%

Q: For O=C(NCC1(N2CCCCC2)CCCCC1)c1cc(F)c(F)cc1Cl, which activation is on record?
A: inactive: 3.98%

Q: Which activation does the source give for CCN1CCCC(OC(=O)C2(O)c3ccccc3C=Cc3ccccc32)C1 (stereo unspecified) here?
A: inactive: -21.2%

Q: For Cc1cc(C(=O)NCC2(N3CCCCC3)CCCCC2)ccc1[N+](=O)[O-], which activation is on record?
A: inactive: 1.7%

Q: How did the activation turn out when O=C(NCC1(N2CCCCC2)CCCCC1)c1cccc(Br)c1 was run?
A: inactive: -7.46%

Q: Which activation does the source give for COc1ccc(C(=O)NCC2(N(C)C)CCCCC2)cc1 here?
A: inactive: -1.49%

Q: With Cc1ccccc1C(=O)NCC1(N2CCCCC2)CCCCC1 as the molecule, how does the activation read?
A: inactive: 5.24%

Q: Which activation does the source give for CN(C)c1ccc(C(=O)NCC2(N(C)C)CCCCC2)cc1 here?
A: inactive: -0.94%

Q: With CN(C)C1CCCC1OC(=O)C(O)(c1ccccc1)c1ccccc1 (stereo unspecified) as the molecule, how does the activation read?
A: inactive: -3.79%

Q: Which activation does the source give for CC(C)N1C(=O)CC2(CCN(CCOC(=O)C(O)(c3ccccc3)c3ccccc3)CC2)C1=O here?
A: inactive: 1.46%

Q: For CCN(CC)CC(C)C(C)OC(=O)C(O)(c1ccccc1)c1ccccc1 (stereo unspecified), which activation is on record?
A: inactive: -2.7%

Q: Which activation does the source give for COc1cc(SC)ccc1C(=O)NCC1(N(C)C)CCCCC1 here?
A: inactive: 1.98%

Q: Which activation does the source give for Cc1ccc(C(=O)NCC2(N3CCCCC3)CCCCC2)cc1 here?
A: inactive: 3.69%

Q: Which activation does the source give for O=C(NCC1(N2CCCCC2)CCCCC1)c1cc([N+](=O)[O-])ccc1Cl here?
A: inactive: 0.14%

Q: How did the activation turn out when CN1[C@@H]2CC[C@H]1CC(OC(=O)C(O)(c1ccccc1)c1ccccc1)C2 (stereo partly specified) was run?
A: inactive: -6.26%
